Test results as given in patent US8802405B2, “Ethanologenic Clostridium species, Clostridium coskatii” (Coskata, Inc., priority 2010, dated 2014).

Experiments:
Test in all cases: Growth on various substrates (carbon substrate utilization)
Settings in all cases: 1 g/L carbon source, N2:CO2 (80%:20%), OD600
C. ragsdalei = type: cell-based, Clostridium ragsdalei
Experimental: (§1) Growth was measured spectrophotometrically at 600 nm (Spectronic 20D; Milton Roy). Carbon substrate utilization was based upon growth after consecutive transfers in media containing 1 g/L of each carbon source. For carbon substrates, screening was performed under an atmosphere of N2: CO2 (80%:20%). A positive growth response was recorded for an OD600 exceeding 0.2 AU. For citrate, additional ^13C-labeled isotope experiments were conducted to determine the nature of products by analysis of final 0.2 μm-filtered product samples by carbon NMR using a Bruker UltraShield Avance 400 MHz nuclear magnetic resonance spectrometer.

C. autoethangenum = type: cell-based, Clostridium autoethanogenum
Experimental: as §1

C. ljungdahlii PETC = type: cell-based, Clostridium ljungdahlii PETC
Experimental: as §1

C. coskatii PS02 = type: cell-based, Clostridium coskatii (PS02)
Experimental: as §1

For `O=C(O)CC(C(=O)O)C(O)C(=O)O` (stereo not shown) [Iso-Citrate], the Growth on substrate (C. ragsdalei) was “+ (A positive growth response was recorded for an OD600 exceeding 0.2 AU)”, the Growth on substrate (C. autoethangenum) was “+ (A positive growth response was recorded for an OD600 exceeding 0.2 AU)” and the Growth on substrate (C. ljungdahlii PETC) was “+ (A positive growth response was recorded for an OD600 exceeding 0.2 AU)”. For the same compound, the Growth on substrate (C. coskatii PS02) was “+ (A positive growth response was recorded for an OD600 exceeding 0.2 AU)”.
